Assay results from patent US20060211045A1, “Fluorescently tagged ligands” (priority 2003, published 2006).

Amino acid sequences for entries named in this document (tags omitted).
UniProt P30542, whole entry: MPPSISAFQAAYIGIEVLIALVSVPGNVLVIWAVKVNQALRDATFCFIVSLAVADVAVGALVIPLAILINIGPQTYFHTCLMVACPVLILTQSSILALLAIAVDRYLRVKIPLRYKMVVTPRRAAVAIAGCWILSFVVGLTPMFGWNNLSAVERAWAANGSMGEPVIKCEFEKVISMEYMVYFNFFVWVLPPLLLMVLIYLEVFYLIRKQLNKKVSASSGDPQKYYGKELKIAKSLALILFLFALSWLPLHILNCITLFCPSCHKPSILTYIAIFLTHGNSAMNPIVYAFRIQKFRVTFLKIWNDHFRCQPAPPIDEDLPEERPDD

What was measured:
human A1-AR = human A1-AR (Homo sapiens, UniProt P30542); assay: c-fos-pGL3 luciferase reporter assay in CHO-A1fos cells; type: cell-based; details: agonist 5 h, mean±s.e.mean
human A1-receptor = human A1-receptor (Homo sapiens, UniProt P30542); assay: Live cell confocal imaging of ligand binding to CHO-A1 cells; type: cell-based; details: 100 nM BY630-ABEA

How did the “pEC50, stimulation of luciferase expression” value (human A1-AR) turn out when `CCNC(=O)[C@H]1O[C@@H](n2cnc3c(NCCCCNC(=O)CCCCCNC(=O)COc4ccc(C=CC5=[N+]6C(=Cc7ccc(-c8cccs8)n7[B-]6(F)F)C=C5)cc4)ncnc32)[C@H](O)[C@@H]1O` was run?
The value was 6.76±0.18.

And the “Time after which binding of ligand to the membrane was detectable (confocal imaging)” value (human A1-receptor; CHO-A1 cells, n=3)?
The value was 5 min.

And the “Membrane binding after preincubation with DPCPX (confocal imaging)” value (human A1-receptor; DPCPX 1 μM, 30 min)?
Its value is “substantially reduced”.
